# From ChEMBL document CHEMBL1124799, “1,4-bis(3-oxo-2,3-dihydropyridazin-6-yl)benzene analogues: potent phosphodiesterase inhibitors and inodilators” (1990)
# Test system: Phosphodiesterase 3 (Felis catus)
# Test: Inhibition of phosphodiesterase 3 enzyme activity by 50%
smiles,measurement,value
CC(=O)Nc1ccc(C2=NNC(=O)CC2C)cc1 (stereo unspecified),IC50,900 nM
